This assay is described as follows: Inhibition of Streptococcus pneumoniae NAD-dependent DNA ligase assessed as equilibrium dissociation constant.

A word on the Kd: it is the constant that tells how readily two partners part at equilibrium. With `NC(=O)c1cc2cc(Br)c(C(F)(F)F)nc2nc1N`, the Kd was 16 nM.

The values above are taken from ChEMBL document CHEMBL2163244, “Structure-guided design, synthesis and biological evaluation of novel DNA ligase inhibitors with in vitro and in vivo anti-staphylococcal activity” (Bioorg Med Chem Lett, 2012).
